In BindingDB's records for doi:10.7270/Q24X565S (The Scripps Research Institute Molecular Screening Center, 2007) one finds IC50 data, which are given here for 1 compound.

The target of this test is cAMP-dependent protein kinase catalytic subunit alpha (Homo sapiens, UniProt P17612). The experiment in a line: inhibition of cAMP-dependent kinase PKA – biochemical, Kinase-Glo luminescence, Kemptide substrate, dose response (AID 548).

As usually defined, the IC50 is the concentration that gives 50% inhibition. Low values mean greater potency, high ones weaker potency.

Turning to `O=C(Nc1nc(-c2ccncc2)cs1)C1COc2ccccc2O1` (stereo unspecified), the IC50 was determined as 682 nM. This lies in the sub-micromolar range.
